Source: IntAct's records for PubMed 20713710

B1: Myc proto-oncogene protein (Homo sapiens), P01106 (parent)
chain: MDFFRVVENQQPPATMPLNVSFTNRNYDLDYDSVQPYFYCDEEENFYQQQQQSELQPPAPSEDIWKKFELLPTPPLSPSRRSGLCSPSYVAVTPFSLRGDNDGGGGSFSTADQLEMVTELLGGDMVNQSFICDPDDETFIKNIIIQDCMWSGFSAAAKLVSEKLASYQAARKDSGSPNPARGHSVCSTSSLYLQDLSAAASECIDPSVVFPYPLNDSSSPKSCASQDSSAFSPSSDSLLSSTESSPQGSPEPLVLHEETPPTTSSDSEEEQEDEEEIDVVSVEKRQAPGKRSESGSPSAGGHSKPPHSPLVLKRCHVSTHQHNYAAPPSTRKDYPAAKRVKLDSVRVLRQISNNRKCTSPRSSDTEENVKRRTHNVLERQRRNELKRSFFALRDQIPELENNEKAPKVVILKKATAYILSVQAEEQKLISEEDLLRKRREQLKHKLEQLRNSCA

Variants of: B1
Conditions: with p49841-2 GSK3B

Variant | effect of a mutation on the interaction
T73A;S77A | decreasing interaction
T73D;S77A | increasing interaction
T73I | decreasing interaction
T73I;S77D | decreasing interaction

Next, values leading:

effect of a mutation on the interaction | Variant
increasing interaction | T73D
decreasing interaction | S77A
